Test results taken from patent publication US20150203563A1.

Chains of the proteins cited; added tags and fusions are not shown. Residues count along the entry.
UniProt P24530, 27-442 limits assumed: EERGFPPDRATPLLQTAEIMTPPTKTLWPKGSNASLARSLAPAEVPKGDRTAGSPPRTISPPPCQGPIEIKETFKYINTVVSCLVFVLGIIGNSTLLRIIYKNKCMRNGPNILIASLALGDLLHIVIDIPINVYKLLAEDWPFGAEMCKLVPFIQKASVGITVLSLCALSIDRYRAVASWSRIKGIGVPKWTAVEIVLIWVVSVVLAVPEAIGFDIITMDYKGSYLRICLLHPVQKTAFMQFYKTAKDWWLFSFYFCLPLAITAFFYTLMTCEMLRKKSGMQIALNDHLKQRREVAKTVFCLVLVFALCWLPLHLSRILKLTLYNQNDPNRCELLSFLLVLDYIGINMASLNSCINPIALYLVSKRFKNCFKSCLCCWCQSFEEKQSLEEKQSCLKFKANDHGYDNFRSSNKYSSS
UniProt P24530, 27-442 C405A limits assumed: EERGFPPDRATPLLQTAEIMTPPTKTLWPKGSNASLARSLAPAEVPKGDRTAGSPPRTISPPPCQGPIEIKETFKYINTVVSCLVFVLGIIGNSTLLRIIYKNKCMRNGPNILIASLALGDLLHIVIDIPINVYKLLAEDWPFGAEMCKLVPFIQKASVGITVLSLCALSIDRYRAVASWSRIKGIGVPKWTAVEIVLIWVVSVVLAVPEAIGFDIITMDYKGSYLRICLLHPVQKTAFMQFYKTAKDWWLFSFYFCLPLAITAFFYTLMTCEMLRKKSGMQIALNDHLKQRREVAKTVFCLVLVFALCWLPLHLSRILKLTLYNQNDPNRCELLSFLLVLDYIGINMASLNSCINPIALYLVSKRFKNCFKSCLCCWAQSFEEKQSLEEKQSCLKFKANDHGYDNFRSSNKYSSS

How the values were obtained:
[1] = target: endothelin-B receptor (ETB), human wild type (human) (UniProt P24530); experiment: cell-based or functional assay
[2] = target: C405A-ETB (mutant ETB with alanine for cysteine at position 405) (human) (UniProt P24530); experiment: cell-based or functional assay

“endothelin-1 (ET-1) (from UniProt P05305 53-73) (ligand)” gave an NO2^- (nitrite) generation in HPAECs, ET-1 10 nM, maximum effect at 10 min, against vehicle (µM/µg protein) [1] of 139, a decrease of ET-1-stimulated NO2^- formation after H2O2 (200 µmol/L, 60 min) in COS-7 cells expressing eNOS and WT-ETB [1] of 78% and a decrease of ET-1-stimulated nitrite levels after H2O2 (200 µmol/L, 60 min) in COS-7 cells expressing eNOS and C405A-ETB [2] of 45%.
